Patent US7132438B2, “Benzimidazole derivatives” (priority 2001, dated 2006)

The chains behind the UniProt entries cited, without tags or fusion partners.
UniProt Q9NWZ3, whole entry: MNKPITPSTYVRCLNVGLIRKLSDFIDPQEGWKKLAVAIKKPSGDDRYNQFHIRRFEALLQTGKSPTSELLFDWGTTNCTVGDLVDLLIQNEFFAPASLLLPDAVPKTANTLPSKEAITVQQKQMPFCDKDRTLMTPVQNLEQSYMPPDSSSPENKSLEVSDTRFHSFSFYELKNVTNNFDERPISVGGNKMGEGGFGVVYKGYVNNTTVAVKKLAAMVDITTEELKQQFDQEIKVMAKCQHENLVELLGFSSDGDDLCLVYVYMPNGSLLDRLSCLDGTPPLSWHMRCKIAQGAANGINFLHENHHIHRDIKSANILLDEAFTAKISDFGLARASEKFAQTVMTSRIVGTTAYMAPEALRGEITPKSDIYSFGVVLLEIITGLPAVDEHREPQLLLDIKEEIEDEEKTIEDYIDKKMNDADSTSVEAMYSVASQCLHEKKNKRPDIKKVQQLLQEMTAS
UniProt P51617, whole entry: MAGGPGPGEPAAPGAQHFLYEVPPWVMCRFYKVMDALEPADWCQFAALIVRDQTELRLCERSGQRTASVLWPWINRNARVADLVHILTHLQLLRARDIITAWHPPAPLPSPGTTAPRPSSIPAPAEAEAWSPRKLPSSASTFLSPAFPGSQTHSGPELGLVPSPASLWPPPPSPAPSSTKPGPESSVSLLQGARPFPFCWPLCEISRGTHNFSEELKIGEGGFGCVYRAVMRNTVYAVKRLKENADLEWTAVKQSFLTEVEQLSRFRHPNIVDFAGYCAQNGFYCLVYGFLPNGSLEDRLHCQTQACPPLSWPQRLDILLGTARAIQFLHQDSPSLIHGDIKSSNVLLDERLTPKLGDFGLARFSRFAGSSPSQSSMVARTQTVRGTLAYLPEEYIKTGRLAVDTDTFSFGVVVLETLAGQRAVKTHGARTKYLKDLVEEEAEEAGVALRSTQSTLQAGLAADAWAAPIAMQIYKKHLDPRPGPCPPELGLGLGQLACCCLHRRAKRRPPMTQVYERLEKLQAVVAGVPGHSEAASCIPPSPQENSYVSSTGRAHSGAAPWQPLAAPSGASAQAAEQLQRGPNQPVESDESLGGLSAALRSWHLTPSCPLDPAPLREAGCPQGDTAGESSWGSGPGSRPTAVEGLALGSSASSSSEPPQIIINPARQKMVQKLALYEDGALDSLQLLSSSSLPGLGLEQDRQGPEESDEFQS

Legend:
[1] = target: IRAK-4 (Homo sapiens, UniProt Q9NWZ3); assay: Enzymatic inhibition assay, IRAK-4 kinase activity (chemiluminescent ELISA); settings: read-out: IC50 values (μM) IRAK-4; recombinant full-length IRAK-4, 10 μM ATP, 60 min room temperature
[2] = target: IRAK-1 (Homo sapiens, UniProt P51617); assay: Enzymatic inhibition assay, IRAK-1 kinase activity (chemiluminescent ELISA); assay type: biochemical; settings: read-out: IC50 values (μM) IRAK-1; recombinant full-length IRAK-1, 3 μM ATP, 60 min room temperature

Work on `O=C(Nc1nc2ccc(F)cc2n1CCCO)c1cccc([N+](=O)[O-])c1` yielded an IC50 [1] of less than 10 µM and an IC50 [2] of less than 10 µM.
`N#Cc1cccc(C(=O)Nc2nc3ccccc3n2CCCO)c1` showed an IC50 [1] of less than 10 µM and an IC50 [2] of less than 10 µM.
`CNCc1ccc2c(c1)nc(NC(=O)c1cccc([N+](=O)[O-])c1)n2CCCO` was tested, and the IC50 [1] was less than 10 µM and the IC50 [2] was less than 10 µM.
`O=C(Nc1nc2cc(F)ccc2n1CCCO)c1cccc([N+](=O)[O-])c1` showed an IC50 [1] of less than 10 µM and an IC50 [2] of less than 10 µM.
Compound `O=C(Nc1nc2cc(O)ccc2n1CCCO)c1cccc([N+](=O)[O-])c1` has an IC50 [1] of less than 10 µM and an IC50 [2] of less than 10 µM.
`N#Cc1cccc(S(=O)(=O)Nc2nc3ccccc3[nH]2)c1` was tested, and the IC50 [2] was 10 to 30 µM.
`Cc1ccc2c(c1)nc(NC(=O)c1cccc([N+](=O)[O-])c1)n2CCCCO` was tested, and the IC50 [1] was less than 10 µM and the IC50 [2] was less than 10 µM.
For `CN(C)Cc1ccc2c(c1)nc(NC(=O)c1cccc([N+](=O)[O-])c1)n2CCCO`, the IC50 [1] was less than 10 µM and the IC50 [2] was less than 10 µM.
`O=C(Nc1nc2cc(F)ccc2n1CCCCO)c1cccc([N+](=O)[O-])c1` gave an IC50 [1] of less than 10 µM and an IC50 [2] of less than 10 µM.
`O=C(Nc1nc2cc(F)c(F)cc2n1CCCCO)c1cccc([N+](=O)[O-])c1` gave an IC50 [1] of less than 10 µM and an IC50 [2] of less than 10 µM.
`COc1ccc2c(c1)nc(NC(=O)c1cccc([N+](=O)[O-])c1)n2CCCCO` showed an IC50 [1] of less than 10 µM and an IC50 [2] of less than 10 µM.
Compound `O=C(Nc1nc2cc(CO)ccc2n1[C@H]1CC[C@H](O)CC1)c1cccc([N+](=O)[O-])c1` (single isomer, unassigned) has an IC50 [1] of less than 10 µM and an IC50 [2] of less than 10 µM.
